Experiment: Effect of co-administered triphenylethylenes on clopidogrel metabolism in vivo (CLP*-acetamide by LC-MS)
Set-up: species or system Sprague-Dawley rats
Conditions: oral gavage
Experimental: Adult male Sprague-Dawley rats are dosed with various triphenylethylenes at different doses from 0.1 mg/kg to 10 mg/kg (spanning the likely doses such compounds would be used in man), or with vehicle only, and simultaneously dosed with 10 mg/kg clopidogrel, both by oral gavage. Blood samples are drawn through an in-dwelling jugular catheter at 0.5, 1, 2, 4, 8 and 24 hrs post-dose, and serum is prepared by conventional methods well known in the art.
The level of CLP*, the active metabolite of clopidogrel is then determined in each blood sample by LC-MS by collecting the blood samples in tubes containing the thiol alkylating agent iodeoacetamide. Iodoacetamide reacts with CLP* to generate a stable product which can be detected by LC-MS using standard methodology well known in the art. An authentic sample of the acetamide adduct of CLP* is used to quantify the level of CLP*-acetamide in the sample. […] The concentration of CLP*-acetamide adduct can therefore be assumed to be proportional to the concentration of CLP*. The pharmacokinetics of CLP*-acetamide are then compared under the different conditions, using standard pharmacokinetics models implemented with WinNonLin.

Structure (SMILES): CN(C)CCOc1ccc(/C(=C(/CCCl)c2ccccc2)c2ccccc2)cc1 [Toremifene]
- % inhibition of CLP*-acetamide Cmax compared to vehicle control (analog 0.1 mg/kg with 10 mg/kg clopidogrel): 11%
- % inhibition of CLP*-acetamide Cmax compared to vehicle control (analog 1 mg/kg with 10 mg/kg clopidogrel): 48%
- % inhibition of CLP*-acetamide Cmax compared to vehicle control (analog 10 mg/kg with 10 mg/kg clopidogrel): 77%

Reference: patent publication US20130005762A1, “COMBINATION OF DROLOXIFENE AND CLOPIDOGREL” (TCP Innovations Limited, priority 2009, published 2013)
